The whole screen tested about 150,000 compounds, of which about 6,500 (4.3%) were called active. Listed are the inconclusive results; actives and inactives stand elsewhere. The call rests on the fitted dose curve; in most records, active means well fitted inhibition curve with a large enough effect (not every such curve was filed as active); inconclusive means small, poorly fitted or top-dose-only effect, or another doubt; inactive means no such curve, though single readings can be large or run the other way.
Molecular target: 15-hydroxyprostaglandin dehydrogenase [NAD(+)] (Homo sapiens) (UniProt P15428)
Assay: qHTS Assay for Inhibitors of HPGD (15-Hydroxyprostaglandin Dehydrogenase)
Conditions: purified HPGD, NADH fluorescence kinetic, PGE2 substrate
Potency means the concentration at half of the fitted maximal effect.

The chains behind the UniProt entries cited, without tags or fusion partners. Where a name states a change or a piece, a line headed by the entry shows the natural chain unless it says otherwise.
UniProt P15428: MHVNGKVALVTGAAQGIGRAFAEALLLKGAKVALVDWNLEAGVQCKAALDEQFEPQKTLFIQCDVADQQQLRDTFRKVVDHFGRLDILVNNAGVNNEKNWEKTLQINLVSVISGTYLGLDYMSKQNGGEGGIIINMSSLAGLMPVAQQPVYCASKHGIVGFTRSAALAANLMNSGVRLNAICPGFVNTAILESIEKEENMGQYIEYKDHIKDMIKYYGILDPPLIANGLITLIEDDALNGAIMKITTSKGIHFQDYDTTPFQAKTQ

SMILES | Potency
CCOP(=O)(Nc1cccc2ccccc12)OCC | inconclusive: 31.6 µM
Cc1cc(SC(NC(=O)c2ccc(F)cc2)C(Cl)(Cl)Cl)ncn1 (centres undefined) | inconclusive: 31.6 µM
Oc1ccccc1CNc1ccccn1 | inconclusive: 35.5 µM
O=C(NC(Sc1ccncn1)C(Cl)(Cl)Cl)c1ccccc1 (centres undefined) | inconclusive: 28.2 µM
